## AlphaSeq binding of Ab-14 heavy chain variants to a spike HR2 peptide

Reference: Engelhart et al. 2022, doi:10.1038/s41597-022-01779-4. File: FLAb, binding data.

Binding partner: SARS-CoV-2 spike HR2 peptide, sequence PDVDLGDISGINAS.

Each scFv is VH, a 15-residue (Gly4Ser)3 linker, VL, as in the parent Ab-14, and differs from it in the CDRs of the heavy chain only.
VH: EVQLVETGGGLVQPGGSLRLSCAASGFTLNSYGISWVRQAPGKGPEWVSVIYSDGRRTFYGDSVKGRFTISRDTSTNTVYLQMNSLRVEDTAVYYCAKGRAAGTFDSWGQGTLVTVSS
VL: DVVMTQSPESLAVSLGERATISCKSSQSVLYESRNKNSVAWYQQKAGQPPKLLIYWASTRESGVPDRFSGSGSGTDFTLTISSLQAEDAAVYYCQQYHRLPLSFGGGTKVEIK

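The parent was found by panning a naive human phage display library on the peptide. AAYL49 was designed without a model: most single CDR substitutions and a random sample of double and triple ones. In AlphaSeq, yeast of one mating type display the scFv and yeast of the other type display the target. After mating in shaken culture at 30 °C for 16 h, diploids were selected and their barcode pairs sequenced. Read counts were normalised to the haploid input and turned into Kd by a linear fit to BCL2-family pairs of known affinity, for each replicate. The assay was run in three technical replicates.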

Sequences are complete VH domains.
Numbers give log10(Kd / nM), so 0 is 1 nM and 3 is 1 µM. Smaller is tighter.
A mean of the replicates is given; it leaves out those without a signal.
Where no diploid with the target was found in that replicate, the entry reads "n.d.": below detection, most likely a poor binder, though not proof of it.

| # | VH | log10 Kd (nM) by replicate | mean, log10 nM | control signals |
|---|---|---|---|---|
| 1 | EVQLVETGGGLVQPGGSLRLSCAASGFTLNSYGISWVRQAPGKGPEWVSVIDSDGRRTGYGSSVKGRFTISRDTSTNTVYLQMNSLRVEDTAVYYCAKGRAAGTFDSWGQGTLVTVSS | 4.38 4.98 5.63 | 5.00 | 1 of 9 (5.01) |
| 2 | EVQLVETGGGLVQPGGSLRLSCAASGFTSNSYGISWVRQAPGKGPEWVSVIYVDGRRTFYGDSVKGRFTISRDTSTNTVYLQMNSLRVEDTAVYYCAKGRAAGTFDSWGQGTLVTVSS | n.d. n.d. n.d. | n.d. | 1 of 9 (4.91) |
| 3 | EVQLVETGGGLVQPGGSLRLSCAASGFTLNSYGISWVRQAPGKGPEWVSVIYSDGRRTFYGDMVKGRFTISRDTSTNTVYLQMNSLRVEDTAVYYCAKGRHAGTFDSWGQGTLVTVSS | 1.03 1.39 1.67 | 1.36 | 0 of 9 |
| 4 | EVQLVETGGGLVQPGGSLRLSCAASGFTLNSYGISWVRQAPGKGPEWVSVIYSDGPRTFKGDSVKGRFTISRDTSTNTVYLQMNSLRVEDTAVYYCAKGRAEGTFDSWGQGTLVTVSS | n.d. n.d. n.d. | n.d. | 1 of 9 (3.71) |
| 5 | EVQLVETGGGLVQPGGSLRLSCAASDFTLNSYGISWVRQAPGKGPEWVSKIYSDPRRTFYGDSVKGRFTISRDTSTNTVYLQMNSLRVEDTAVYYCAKGRAAGTFDSWGQGTLVTVSS | 4.27 n.d. n.d. | 4.27 | 0 of 9 |
| 6 | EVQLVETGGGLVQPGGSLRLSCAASGFTLNSYGISWVRQAPGKGPEWVSVIYSDGRRTDYGDSVKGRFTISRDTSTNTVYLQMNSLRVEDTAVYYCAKGRAAGLNDSWGQGTLVTVSS | n.d. 3.53 n.d. | 3.53 | 4 of 9 (4.06) |
| 7 | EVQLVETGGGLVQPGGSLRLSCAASIFTLNSYGISWVRQAPGKGPEWVSVIYSDGRRTFYGDSLKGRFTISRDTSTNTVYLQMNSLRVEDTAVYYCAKGRAAGWFDSWGQGTLVTVSS | n.d. 4.43 3.65 | 4.04 | 2 of 9 (4.21) |
| 8 | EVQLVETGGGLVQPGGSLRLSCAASGFTLNSYGKSWVRQAPGKGPEWVSVIYSDGRRTFYGDSVKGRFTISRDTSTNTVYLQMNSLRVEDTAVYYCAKGRHAGTFDSWGQGTLVTVSS | n.d. n.d. 3.45 | 3.45 | 2 of 9 (4.46) |
| 9 | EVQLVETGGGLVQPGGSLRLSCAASGTTLNSYGISWVRQAPGKGPEWVSVIYSDGWRTFYGDSVKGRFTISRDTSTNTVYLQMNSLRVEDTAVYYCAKGRSAGTFDSWGQGTLVTVSS | 3.41 4.10 5.03 | 4.18 | 3 of 9 (5.01) |
| 10 | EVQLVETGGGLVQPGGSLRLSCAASAFTLNRYGISWVRQAPGKGPEWVSVIYSDGRRTFYGDSVKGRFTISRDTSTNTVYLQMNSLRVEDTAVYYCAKGCAAGTFDSWGQGTLVTVSS | 2.47 2.20 2.07 | 2.25 | 0 of 9 |
| 11 | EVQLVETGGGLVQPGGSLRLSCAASGFTLNSYGISWVRQAPGKGPEWVSVIASDGRRTFNGDSVKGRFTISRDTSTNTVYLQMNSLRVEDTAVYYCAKGRAAGTFKSWGQGTLVTVSS | n.d. n.d. n.d. | n.d. | 3 of 9 (4.19) |

Second part, the sequence after the result:

| # | log10 Kd (nM) by replicate | mean, log10 nM | control signals | VH |
|---|---|---|---|---|
| 12 | 3.78 n.d. n.d. | 3.78 | 2 of 9 (4.44) | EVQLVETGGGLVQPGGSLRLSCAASGFTLPCYGISWVRQAPGKGPEWVSVIYSDSRRTFYGDSVKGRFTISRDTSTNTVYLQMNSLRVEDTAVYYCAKGRAAGTFDSWGQGTLVTVSS |
| 13 | n.d. n.d. n.d. | n.d. | 0 of 9 | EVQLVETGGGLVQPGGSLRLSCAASGFTLNSYGISWVRQAPGKGPEWVSVIYLDGRRTIYGDSVKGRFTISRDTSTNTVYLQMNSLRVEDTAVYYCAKGQAAGTFDSWGQGTLVTVSS |
| 14 | n.d. n.d. n.d. | n.d. | 0 of 9 | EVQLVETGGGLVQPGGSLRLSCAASGFTLNSYGISWVRQAPGKGPEWVSVKYSDGRRTFYGDSVYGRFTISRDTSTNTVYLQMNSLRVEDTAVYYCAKGRAAGTFMSWGQGTLVTVSS |
| 15 | 4.19 4.27 n.d. | 4.23 | 2 of 9 (3.79) | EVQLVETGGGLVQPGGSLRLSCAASGFTLNSKGISWVRQAPGKGPEWVSVQYSDGRRTFYGDSVKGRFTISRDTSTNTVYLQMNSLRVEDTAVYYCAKGRAAGTFDSWGQGTLVTVSS |
| 16 | n.d. n.d. n.d. | n.d. | 0 of 9 | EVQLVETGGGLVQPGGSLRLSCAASGFTLNSYGISWVRQAPGKGPEWVSVIYSDGPRTFIGDSDKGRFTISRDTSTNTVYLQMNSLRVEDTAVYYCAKGRAAGTFDSWGQGTLVTVSS |
| 17 | n.d. 3.53 n.d. | 3.53 | 3 of 9 (3.86) | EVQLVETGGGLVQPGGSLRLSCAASGFTLNSYGISWVRQAPGKGPEWVSVAYSDGRRTFYGDSVKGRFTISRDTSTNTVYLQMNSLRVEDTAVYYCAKARAAGTFDHWGQGTLVTVSS |
| 18 | n.d. n.d. 2.64 | 2.64 | 2 of 9 (4.61) | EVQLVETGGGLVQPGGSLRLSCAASGFTLNSYGISWVRQAPGKGPEWVSVIYSDGRTEFYGDSVKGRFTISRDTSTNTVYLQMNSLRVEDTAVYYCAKCRAAGTFDSWGQGTLVTVSS |
| 19 | 5.27 4.76 5.23 | 5.08 | 5 of 9 (4.47) | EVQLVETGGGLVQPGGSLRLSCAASGCTLNSYGKSWVRQAPGKGPEWVSVIYSDGRRTFYGDSVPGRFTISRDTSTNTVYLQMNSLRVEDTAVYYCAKGRAAGTFDSWGQGTLVTVSS |
| 20 | 1.20 1.19 1.29 | 1.23 | 0 of 9 | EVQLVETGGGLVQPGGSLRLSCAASGFTLNSYGISWVRQAPGKGPEWVSVIYSDGRRTFYGDSVDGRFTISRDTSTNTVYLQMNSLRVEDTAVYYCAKGRLAGTFDSWGQGTLVTVSS |
| 21 | n.d. 4.14 4.09 | 4.12 | 1 of 9 (4.26) | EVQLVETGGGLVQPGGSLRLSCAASGFTQNSYGWSWVRQAPGKGPEWVSVIYSDGRRTFYGDSVKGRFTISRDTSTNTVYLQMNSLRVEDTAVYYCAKGRAAGTFDEWGQGTLVTVSS |
| 22 | n.d. n.d. n.d. | n.d. | 0 of 9 | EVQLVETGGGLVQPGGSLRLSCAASGFTLNSYGISWVRQAPGKGPEWVSVIYSDGRRTFYFMSVKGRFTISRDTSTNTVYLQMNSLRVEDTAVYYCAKGRAAGTFDSWGQGTLVTVSS |
| 23 | n.d. n.d. n.d. | n.d. | 0 of 9 | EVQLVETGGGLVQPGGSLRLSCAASGFNLNSYGISWVRQAPGKGPEWVSVIVSDGRRTLYGDSVKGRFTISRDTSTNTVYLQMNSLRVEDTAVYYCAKGRAAGTFDSWGQGTLVTVSS |

Top 2 of the variants detected in all replicates, tightest first:

VH,log10 Kd (nM) by replicate,"mean, log10 nM",control signals
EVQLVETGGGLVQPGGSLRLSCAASGFTLNSYGISWVRQAPGKGPEWVSVIYSDGRRTFYGDSVDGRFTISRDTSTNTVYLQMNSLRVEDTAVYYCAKGRLAGTFDSWGQGTLVTVSS,1.20 1.19 1.29,1.23,0 of 9
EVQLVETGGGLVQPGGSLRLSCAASGFTLNSYGISWVRQAPGKGPEWVSVIYSDGRRTFYGDMVKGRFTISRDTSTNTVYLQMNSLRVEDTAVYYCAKGRHAGTFDSWGQGTLVTVSS,1.03 1.39 1.67,1.36,0 of 9

Empty control strains, which show no peptide, gave a signal in 15% of pairings with library AAYL49; the median was 4.06 and 95% of these signals were weaker than 2.83. No background was subtracted. For each scFv, signals with the empty controls are counted beside the result, with their mean in brackets.